# Binding of CDR-mutated scFvs to a peptide of the spike HR2 region

Antigen: PDVDLGDISGINAS, a 14-residue peptide of the SARS-CoV-2 spike HR2 region.

Parent scFv Ab-14: VH joined to VL by the linker GGGGSGGGGSGGGGS. Changes lie in the heavy chain CDRs alone.
VH: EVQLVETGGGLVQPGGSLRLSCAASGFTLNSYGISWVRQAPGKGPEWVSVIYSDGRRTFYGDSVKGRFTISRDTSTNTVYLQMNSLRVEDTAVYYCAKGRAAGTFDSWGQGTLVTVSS
VL: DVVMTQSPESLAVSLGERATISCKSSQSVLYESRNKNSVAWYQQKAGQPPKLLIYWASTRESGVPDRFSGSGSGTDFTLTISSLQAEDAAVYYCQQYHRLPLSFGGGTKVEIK

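The library (AAYL49) carries one to three amino acid substitutions per variant, with no insertions or deletions. The scFvs were displayed on barcoded MATa yeast, the peptide on MATalpha yeast. Mating (16 h, 30 °C) was followed by selection of diploids and sequencing of their barcodes. A regression on co-assayed BCL2-family reference pairs converts the normalised counts of each replicate to an apparent Kd. Each pool was mated in three replicate cultures.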

Variants are written as CDR1, CDR2 and CDR3 of the heavy chain (limits as in the source). Parent: GFTLNSYGIS, VIYSDGRRTFYGDSVK, GRAAGTFDS. Values are apparent Kd, the geometric mean of the replicates that gave a signal; lower means stronger binding. An entry "no signal" has no value in the source: the pair was not observed among the diploids in any replicate. This suggests poor binding but is not conclusive.

CDR-H1	CDR-H2	CDR-H3	apparent Kd	replicates with signal	signal with controls
GFTLSSYGIS	VIYSDGRPTFYGDSVG	GRAAGTFDS	47 nM	3 of 3	0 of 9
GETLNSYGIS	VIYSDGRRTFYGDSNK	GRAAGTFDS	no signal	0 of 3	0 of 9
GFTLNSYGIS	VIYSDGRRTFYGDQRK	GKAAGTFDS	no signal	0 of 3	0 of 9
GHTLNSYGIS	VIYSDGRRSFYGDSVK	GRAAKTFDS	14 µM	1 of 3	2 of 9
GFTLNSYGIP	VIYSDGRRSFYGDSVK	GRAASTFDS	9.4 µM	2 of 3	3 of 9
GFTLNSYGIS	VIHSDGHYTFYGDSVK	GRAAGTFDS	2.4 µM	1 of 3	0 of 9
GFTKNSYGIS	VIYSDGRRTFYGDSWK	TRAAGTFDS	no signal	0 of 3	1 of 9
GFTDNSYGIS	VIYSQGRRTFYGDSVK	GWAAGTFDS	no signal	0 of 3	1 of 9
GFTLNSYGII	VIYSDGRCTFYGDSVK	GRAAGTFDS	12 µM	2 of 3	1 of 9
GFTLNSYFIN	VIYSDGRRTFYGDSVK	GRARGTFDS	5.9 µM	1 of 3	3 of 9
GFTLNAYGIS	VIYSDGRRTFYGDSVK	GRAAGTPMS	370 nM	3 of 3	4 of 9
GFTLNSYGDS	VIISDGRRTHYGDSVK	GRAAGTFDS	78 µM	1 of 3	1 of 9
GFTLNSYGIS	VIYSDGRRTFYGDKVA	GRAAGTFYS	630 nM	3 of 3	5 of 9
GFTLNEYGIS	VIYSDGRRVFYLDSVK	GRAAGTFDS	1.2 nM	3 of 3	1 of 9
GFTLNSYCIS	VIYSDGRRTFYGDSVK	GRAYGTFKS	no signal	0 of 3	1 of 9
GFTANSYGRS	GIYSDGRRTFYGDSVK	GRAAGTFDS	32 µM	1 of 3	6 of 9
GFTLWSYGIS	VMYSDGRRTFYGDSVK	GRAHGTFDS	3.1 µM	3 of 3	1 of 9
GFTLQSYGIE	VIYSDGRRTFYGDSVK	GRAAGTFDG	no signal	0 of 3	1 of 9
GFTLNSYGIK	VIYSDGRRTFYGDSVK	GRSAGTFDL	no signal	0 of 3	0 of 9
GFTLNSYGIS	VIYMFGRRTFYGDSVK	GRAAGTFDS	170 µM	1 of 3	1 of 9
GFTLNSYGIS	VIYSDGRRTFYGMSEK	GRAAGTFES	29 µM	2 of 3	3 of 9
GFTLNSYGIS	VFYSDGRRTFYGDSRK	GRCAGTFDS	no signal	0 of 3	0 of 9

Continued, with the values leading:

apparent Kd	replicates with signal	signal with controls	CDR-H1	CDR-H2	CDR-H3
no signal	0 of 3	0 of 9	GFFLNSYGIS	VQYSDGYRTFYGDSVK	GRAAGTFDS
no signal	0 of 3	0 of 9	GFTKNLYGIS	VIYSDGRRTFYGDSVK	GSAAGTFDS
860 nM	2 of 3	1 of 9	MFTLNSYGIH	VIYSDGRRAFYGDSVK	GRAAGTFDS
1.9 µM	3 of 3	2 of 9	KFTLNSYGIS	VIYSDGRRTFYGDWVE	GRAAGTFDS
no signal	0 of 3	0 of 9	TFTLNSYGIS	VIYSDGRRTFYGASVK	CRAAGTFDS
no signal	0 of 3	0 of 9	GFTLNSYGIS	VIYSDGRRTFDMDSVK	IRAAGTFDS
5.1 µM	1 of 3	0 of 9	GFTLNSYGIS	VIYSDGRRTLYGDSMK	GRAAGTFGS
no signal	0 of 3	5 of 9	GFTLNAYGIS	HIYSDGRRTFYGDSCK	GRAAGTFDS
3.0 µM	1 of 3	0 of 9	GFTLNSYGID	VIYSMGRRTFFGDSVK	GRAAGTFDS
no signal	0 of 3	0 of 9	GFTLASYGIS	AIYSDGRRTFYGDSVH	GRAAGTFDS
87 µM	1 of 3	0 of 9	GFTLNSYGIS	AIYSDRTRTFYGDSVK	GRAAGTFDS
no signal	0 of 3	0 of 9	GFTLNSYLIS	VCYSDGRRTFYGDSCK	GRAAGTFDS
no signal	0 of 3	1 of 9	GFTLNSYGIS	VIYSDGRRTFKSDSVK	SRAAGTFDS
18 µM	1 of 3	0 of 9	EFTLLSYGIS	HIYSDGRRTFYGDSVK	GRAAGTFDS
no signal	0 of 3	1 of 9	GFTLNSYQIS	VIYSDGRRTFYGDSVK	GRAAQHFDS
no signal	0 of 3	1 of 9	GFTLWSYGIY	VIYSDGDRTFYGDSVK	GRAAGTFDS
no signal	0 of 3	0 of 9	AFTLNSYGGS	VIYSDGRRTFYGDSVK	GRAAFTFDS
17 µM	2 of 3	4 of 9	GFTLNSYGII	VIYSDGRRTFYVDSVK	GRAAGTFDS
6.6 µM	2 of 3	5 of 9	GFTLNSYGIS	VIYLDGRRTFYSDTVK	GRAAGTFDS
no signal	0 of 3	0 of 9	GFTLDSYGIS	VTYSDGRRTFYGDSVK	QRAAGTFDS
59 nM	1 of 3	0 of 9	GFTLQSYGIS	VIYSDGFRTFYGDSVG	GRAAGTFDS
210 µM	1 of 3	0 of 9	GFTLSSYGIS	VIYSDGRRTFYGRSVK	GRAAGTFPS
no signal	0 of 3	1 of 9	GFTLNSYGIE	VIYSFGRRTFLGDSVK	GRAAGTFDS

Repeated from above, the 4 best binders with a signal in all replicates:

| CDR-H1 | CDR-H2 | CDR-H3 | apparent Kd | replicates with signal | signal with controls |
|---|---|---|---|---|---|
| GFTLNEYGIS | VIYSDGRRVFYLDSVK | GRAAGTFDS | 1.2 nM | 3 of 3 | 1 of 9 |
| GFTLSSYGIS | VIYSDGRPTFYGDSVG | GRAAGTFDS | 47 nM | 3 of 3 | 0 of 9 |
| GFTLNAYGIS | VIYSDGRRTFYGDSVK | GRAAGTPMS | 370 nM | 3 of 3 | 4 of 9 |
| GFTLNSYGIS | VIYSDGRRTFYGDKVA | GRAAGTFYS | 630 nM | 3 of 3 | 5 of 9 |

Background: pairings of library AAYL49 with three empty control strains gave a value in 15% of cases (median 11 µM, 5th percentile 680 nM). Values in that range, when seen in few replicates, are hard to tell from nonspecific mating. Also given: how often the same scFv was detected with the empty control strains. Parent in this assay: reference entry 4.4 nM, copy in this library 13 µM (one replicate of three).

The measurements come from Engelhart et al. 2022 (doi:10.1038/s41597-022-01779-4) through the FLAb antibody collection.